{"source": "ChEMBL document CHEMBL1125539", "about": "(J Med Chem, 1992)", "key": {"[1]": {"experiment": "Growth inhibition of aerobic chinese hamster ovary fibroblast UV4 cells using an exposure time of 18 hours"}, "[2]": {"experiment": "Hypoxic selectivity was measured as product of concentration and exposure time needed to reduce cell survival to 10% of control using UV4 cells at 10e6 /mL in the clonogenic assay"}, "[3]": {"experiment": "Growth inhibition of aerobic chinese hamster ovary fibroblast AA8 cell line using an exposure time of 18 hours", "settings": "cho-aa8"}}}
{"molecule": "O=[N+]([O-])c1ccc(N(CCCl)CCCl)cc1", "values": [{"measurement": "IC50", "setting": "[1]", "value": 17, "unit": "µM"}, {"measurement": "CT10", "setting": "[2]", "value": 760, "unit": "µM/h"}]}
{"molecule": "CN(C)C(=O)c1cccc(N(CCCl)CCCl)c1", "values": [{"measurement": "IC50", "setting": "[1]", "value": 1.2, "unit": "µM"}, {"measurement": "IC50", "setting": "[3]", "value": 12, "unit": "µM"}]}
{"molecule": "O=[N+]([O-])c1ccc(N(CCCl)CCCl)c([N+](=O)[O-])c1", "values": [{"measurement": "IC50", "setting": "[1]", "value": 44, "unit": "µM"}, {"measurement": "IC50", "setting": "[3]", "value": "> 50", "unit": "µM"}]}
